# Reference: US20240011030A1, “TREATMENTS FOR RETINAL DEGENERATIVE DISEASES” (Novartis AG, priority 2020, published 2024)
# B1: IFNβ: interferon-beta purchased from R&D Systems (protein)
# chain: MSYNLLGFLQRSSNFQCQKLLWQLNGRLEYCLKDRMNFDIPEEIKQLQQFQKEDAALTIYEMLQNIFAIFRQDSSSTGWNETIVENLLANVYHQINHLKTVLEEKLEKEDFTRGKLMSSLHLKRYYGRILHYLKAKEYSHCAWTIVRVEILRNFYFINRLTGYLRN
# Key:
# [1] = tested on: iPS-RPE cells; experiment: Transepithelial resistance (TER) of RPE barrier function; type: cell-based, human; details: FIGS. 7A and 7D
# Method: (§1) In order to evaluate the effects of IFNs on RPE barrier function, transepithelial resistance (TER) was measured in 3D cultures of iPS-RPE cells. Briefly, barrier function of RPE cells was assessed by monitoring TER every 15 minutes by means of a cellZscope 2 (NanoAnalytics GmbH, Münster, Germany). The resistance values for individual monolayers at specific times (Ω cm^2) were determined, subtracted for background resistance produced by the blank filter and culture medium (as 0%), and normalized to baseline resistance prior to stimulation (as 100%).
# as §1, with “Barrier” for “In order to evaluate the effects of IFNs on RPE barrier function, transepithelial resistance (TER) was measured in 3D cultures of iPS-RPE cells. Briefly, barrier”, “Munster,” for “Münster,”
# [2] = tested on: RPE cells; experiment: ISG15 induction by IFN stimulation (ELISA); type: cell-based, human; details: THP1, ARPE-19 or iPS-RPE cells, IFNs up to 100 μg/ml, 24 hours, FIGS. 2D to 2F
# Method: To test whether IFNs can induce an IFN response and, if so, which IFNs can induce an IFN response, cells were treated with different IFNs (IFNα1, IFNβ, IFNγ, or IFNλ1/2/3), and ISG15 induction was measured. Cells were treated with different IFN types at 100 ng/ml each (FIG. 2D) or 0 ng/ml IFN, 0.1 ng/ml IFN, 1 ng/ml IFN, 10 ng/ml IFN, or 100 ng/ml IFN (FIGS. 2E and 2F). ISG15 expression in was detected by ELISA 24 hours after treatment as described above, using antibody pairs for ISG15 (R&D #AF4845, #A-830). Upon treatment with different IFN types, the RPE cell lines and THP-1 cells responded to type I IFN stimulation with downstream ISG15 activation (FIG. 2D-2E).
# For ELISA, assays were run using Meso Scale Discovery plates (Meso Scale Diagnostics, Rockville, MD). Lysates were extracted using cell lysis buffer (CST #9803), and supplemented with protease and phosphatase inhibitors. Lysates or conditioned media were measured in 384-well plates using antibody pairs for ISG15 (R&D #AF4845, #A-830), IFNβ (R&D #DY814), IFNα1 (abcam #ab215408), IFNγ (R&D #DY285B), IFNλ1/3 (R&D #DY1598B), and cGAS (Cayman #23853, CST #66546). Protein levels were measured according to manufacturer instructions, and detected on a Meso Sector S 600 imager.
molecule,measurement,setting,value
B1,Barrier function (TER) on treatment,[1],impaired
same,ISG15 induction in response to IFN stimulation,[2],primarily responded
